Values of other authors in PMC8037418, “Outlining In Vitro and In Silico Cholinesterase Inhibitory Activity of Twenty-Four Natural Products of Various Chemical Classes: Smilagenin, Kokusaginine, and Methyl Rosmarinate as Emboldening Inhibitors” (Molecules, 2021).

Chains of the proteins cited; added tags and fusions are not shown. Residues count along the entry.
UniProt P06276, 29-602: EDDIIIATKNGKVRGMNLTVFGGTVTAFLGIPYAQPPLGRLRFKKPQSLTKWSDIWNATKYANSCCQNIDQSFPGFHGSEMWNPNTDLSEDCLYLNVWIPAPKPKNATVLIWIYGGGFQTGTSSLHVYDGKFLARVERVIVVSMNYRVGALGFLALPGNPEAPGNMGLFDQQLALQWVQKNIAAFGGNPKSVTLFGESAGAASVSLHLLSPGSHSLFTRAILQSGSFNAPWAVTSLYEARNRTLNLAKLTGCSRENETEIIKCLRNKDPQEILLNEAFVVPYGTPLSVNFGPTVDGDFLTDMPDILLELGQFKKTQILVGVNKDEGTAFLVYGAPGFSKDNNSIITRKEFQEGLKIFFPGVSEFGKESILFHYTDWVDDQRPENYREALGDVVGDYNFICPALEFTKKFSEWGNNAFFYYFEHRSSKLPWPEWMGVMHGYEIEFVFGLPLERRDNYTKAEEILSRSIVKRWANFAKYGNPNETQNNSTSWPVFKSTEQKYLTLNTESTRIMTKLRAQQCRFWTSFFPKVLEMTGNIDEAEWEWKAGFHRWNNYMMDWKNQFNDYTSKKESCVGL

Biological target: BChE (Homo sapiens, UniProt P06276)
Details: Calceolaria talcana study; cited from earlier work

Forsythoside B
IC50 BChE: 27.6 µg/mL
